{"source": "ChEMBL document CHEMBL5214958", "about": "“Discovery of novel compounds as potent activators of Sirt3” (Bioorg Med Chem, 2022)", "key": {"[1]": {"target": "T1, NAD-dependent protein deacetylase sirtuin-3, mitochondrial (Homo sapiens) (UniProt Q9NTG7)", "T1 sequence (whole entry)": "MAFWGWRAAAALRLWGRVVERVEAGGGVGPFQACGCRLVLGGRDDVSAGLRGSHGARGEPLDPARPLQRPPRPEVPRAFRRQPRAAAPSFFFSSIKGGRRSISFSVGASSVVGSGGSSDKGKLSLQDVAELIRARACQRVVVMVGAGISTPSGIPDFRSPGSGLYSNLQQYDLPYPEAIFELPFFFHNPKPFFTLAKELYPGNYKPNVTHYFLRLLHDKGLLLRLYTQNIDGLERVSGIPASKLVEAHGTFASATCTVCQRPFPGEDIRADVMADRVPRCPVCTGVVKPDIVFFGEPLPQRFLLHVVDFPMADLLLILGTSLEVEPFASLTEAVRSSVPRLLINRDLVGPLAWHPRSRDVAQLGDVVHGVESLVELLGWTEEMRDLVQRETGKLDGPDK", "assay": "(§1) Modulation of human Sirt3 (118 to 399 residues) deacetylation activity under non-steady state assessed as substrate deacetylation at low enzyme concentration with [E]0/[NAD+]0 ratio of 0.3 at 10 uM incubated for 2 mins using MnSOD peptide as substrate in presence of NAD+ by HPLC-assay relative to control", "details": "filed as modulator"}, "[2]": {"target": "T1, NAD-dependent protein deacetylase sirtuin-3, mitochondrial (Homo sapiens)", "assay": "as §1, with “high” for “low”, “0.6” for “0.3”", "details": "filed as modulator"}}, "data": [{"smiles": "CCCCNC(=O)COc1ccc2c(c1)CCc1ccccc1C2NC(=O)CCCOc1cc([N+](=O)[O-])c(C(C)O)cc1OC", "note": "(configuration not stated)", "values": [{"measurement": "Activity", "setting": "[1]", "result": 107, "unit": "%"}, {"measurement": "Activity", "setting": "[2]", "result": 122, "unit": "%"}]}]}
